# Experimental data as given in US20200375945A1, “INHALABLE FORMULATION OF A SOLUTION CONTAINING INDACATEROL MALEATE AND GLYCOPYRRONIUM BROMIDE” (priority 2019, published 2020).
# Legend:
# [1] = Aerodynamic particle size distribution on Next Generation Impactor (NGI); type: physicochemical; settings: sample 2 sprayed with soft mist inhaler, NGI at 30 L/min
# Description: Sample 2 was sprayed with a soft mist inhaler. Aerodynamic particle size distribution of droplets of sample 2 was measured on Next Generation Impactor (NGI). Next Generation Impactor operated at a flow rate of 30 L/min was used for determination of particle size distribution. For each of the impactor experiments, the impactor collection stages were coated with a silicone oil. The aerodynamic particle size distribution is expressed in terms of mass median aerodynamic diameter (MMAD) and Geometric Standard Deviation (GSD).
# [2] = Tested concentration and assay of the active ingredients in the inhalation solution; type: physicochemical; settings: in the sample solutions (ethanol/water, benzalkonium chloride, edetate disodium dihydrate)
substance,measurement,setting,value
Glycopyrronium bromide,MMAD (mass median aerodynamic diameter),[1],3.35 μm
same,Dissolution of the active in the solution,[2],completely dissolved
